The experiment concerns L929 cells. The experiment can be described thus: Apoptosis and necrosis assay (live/dead staining, active caspase-3, flow cytometry) in L929 cells. It counts as cell-based, mouse. Conditions: TNF alone or antibody added with TNF. The method, then: Cells were incubated overnight (or for times as indicated in the figures) in the presence of TNF[…] (Immunotools, Friesoythe, Germany) or TNF peptides with or without 20 μM z-VAD-FMK (R & D Systems, Minneapolis, Minn.) or 20 μM Necrotatin-1 (PeproTech, Rocky Hill, N.J.). In some experiments, TNF[…] and □ cells were co-cultured with monoclonal antibodies or synovial fluids at the indicated concentration. The cells were stained with live/dead cell staining kits (Invitrogen, Paisley, UK) instructed by the manufacturer's manual and fixed using cytofix/cytoperm fixation/permeabilization solution kits (BD Pharmingen, Oxford, UK). This was followed by intracellular staining with FITC-conjugated anti-caspase-3 antibody (Cell Signaling Technology, Danvers, Mass., USA). Cells were acquired on a CyAn flow cytometer (Beckman Coulter, Fullerton, Calif.) and data were analyzed using Flowjo (Tree Star Inc. Ashland, Oreg.).
In general terms: Flow cytometry measures light scatter and fluorescence of single cells or particles in a stream.

For “TNF: cytokine purchased from Immunotools, used as stimulus [reference compound]”, the “cell fate (apoptosis / survival / necrosis) of L929 cells” value is listed as “induced cell apoptosis”.
